Measurements published in patent US6426343B1 (dated 2002).

Sequences of proteins named here, by UniProt entry; tags and fusion partners are left off. Residues count along the entry.
UniProt P18507, 40-467 isoform P18507-1 limits assumed: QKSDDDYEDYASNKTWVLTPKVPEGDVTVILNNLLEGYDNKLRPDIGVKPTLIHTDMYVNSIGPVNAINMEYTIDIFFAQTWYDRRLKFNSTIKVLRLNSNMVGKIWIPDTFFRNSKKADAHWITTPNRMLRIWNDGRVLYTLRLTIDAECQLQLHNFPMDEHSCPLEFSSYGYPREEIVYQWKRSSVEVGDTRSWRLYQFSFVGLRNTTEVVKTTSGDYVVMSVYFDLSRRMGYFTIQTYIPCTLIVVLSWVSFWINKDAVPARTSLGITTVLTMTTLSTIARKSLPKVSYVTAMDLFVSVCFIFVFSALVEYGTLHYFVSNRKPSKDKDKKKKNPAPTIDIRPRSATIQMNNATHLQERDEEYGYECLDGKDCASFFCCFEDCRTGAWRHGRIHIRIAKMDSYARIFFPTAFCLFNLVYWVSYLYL
UniProt P47869, 29-451: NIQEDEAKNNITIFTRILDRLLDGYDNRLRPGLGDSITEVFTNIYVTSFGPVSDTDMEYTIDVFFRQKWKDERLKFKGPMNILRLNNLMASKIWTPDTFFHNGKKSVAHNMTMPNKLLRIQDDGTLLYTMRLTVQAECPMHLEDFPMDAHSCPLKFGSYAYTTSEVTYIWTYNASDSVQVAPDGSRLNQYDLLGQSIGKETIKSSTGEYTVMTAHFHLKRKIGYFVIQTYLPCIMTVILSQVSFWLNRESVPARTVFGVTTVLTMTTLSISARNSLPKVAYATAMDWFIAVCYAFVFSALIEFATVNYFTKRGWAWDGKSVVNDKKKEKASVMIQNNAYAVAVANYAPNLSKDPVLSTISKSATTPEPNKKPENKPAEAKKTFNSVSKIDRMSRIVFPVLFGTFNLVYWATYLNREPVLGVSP
UniProt P14867, 28-456: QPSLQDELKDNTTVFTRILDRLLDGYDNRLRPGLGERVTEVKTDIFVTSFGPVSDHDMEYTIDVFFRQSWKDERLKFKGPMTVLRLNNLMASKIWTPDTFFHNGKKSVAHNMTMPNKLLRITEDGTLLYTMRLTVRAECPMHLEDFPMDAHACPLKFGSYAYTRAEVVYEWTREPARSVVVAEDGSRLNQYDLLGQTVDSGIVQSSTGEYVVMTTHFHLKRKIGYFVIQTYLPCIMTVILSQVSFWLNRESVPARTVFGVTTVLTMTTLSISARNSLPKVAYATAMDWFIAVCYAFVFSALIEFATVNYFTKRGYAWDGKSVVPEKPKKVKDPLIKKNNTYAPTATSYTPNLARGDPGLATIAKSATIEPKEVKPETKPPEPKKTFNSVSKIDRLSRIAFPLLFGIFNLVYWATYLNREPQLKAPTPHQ

Tests used:
[1] = target: α2β3γ2 (Homo sapiens, UniProt P18507+P47869); test: Radioligand binding, membranes of stably transfected cells; conditions: read-out: Ki α2β3γ2; [3H]Ro 15-1788 at twice Kd; mean±SEM, 3-6 determinations
[2] = target: α1β3γ2 (Homo sapiens, UniProt P14867+P18507); conditions: read-out: Ki α1β3γ2; [3H]Ro 15-1788 at twice Kd; mean±SEM, 3-6 determinations

CCOC(=O)c1ncn2c1CN(C)C(=O)c1cc(N=[N+]=[N-])ccc1-2 [Ro 15-4513, reference compound] showed a Ki [1] of 2.6 ± 0.7 nM and a Ki [2] of 2.6 ± 0.11 nM.
